{
  "source": "paper PMC4579270",
  "about": "“Identification and Characterization of an Irreversible Inhibitor of CDK2” (Chemistry & Biology, 2015)",
  "origin": "cited, not measured here",
  "system": "CDK2",
  "conditions": "ref Hardcastle et al., 2004; cited from earlier work",
  "data": [
    {"smiles": "CS(=O)(=O)c1ccc(Nc2nc(OCC3CCCCC3)c3nc[nH]c3n2)cc1", "note": "[NU6155, 6-(cyclohexylmethoxy)-N-(4-(methylsulfonyl)phenyl)-9H-purin-2-amine]", "values": [
      {"measurement": "inhibition of CDK2 (in words)", "result": "nanomolar"}
    ]}
  ]
}
